Assay results from patent US8143403B2 (Bristol-Myers Squibb Company, priority 2008, dated 2012).

Experiments:
[1] = system: i.v. hαCGRP-induced increase in middle meningeal artery diameter and facial blood flow; assay: Validation of facial blood flow as surrogate for intracranial artery dilation in the rat; format: in vivo; details: n=5 rats
[2] = system: CGRP-induced increase in laser Doppler facial blood flow; assay: Inhibition of CGRP-induced increase in laser Doppler facial blood flow in non-human primate; format: in vivo, common marmoset (Callithrix jacchus); details: hαCGRP i.v., increasing doses at 30 min intervals, n=6
Description: FIG. 4. […] Data are peak % change from baseline±sem, with each animal serving as its own control.
Saturation/Scatchard Analysis. […] Saturation data were analyzed using a one site binding equation to estimate apparent equilibrium dissociation constant (Kd) and the maximum number of binding sites (Bmax) (Prizm v4.0, Graphpad). […] Functional Antagonism/Schild analysis. Agonist stimulation of CGRP receptor complex leads to cyclic AMP (adenosine 3′5′-cyclic monophosphate) production via Gs-dependent activation of an adenylate cyclase (Juaneda C et al., TiPS, 2000; 21:432-438). Consequently, CGRP receptor antagonists inhibit CGRP-induced cyclic AMP formation in SK-N-MC cells which natively express the CGRP receptor complex (Doods H et al., Br J Pharmacol, 2000; 129(3):420-423). […] A Schild analysis format was used, which allowed investigation of the mechanism of antagonism. […] Various concentrations of CGRP were added and the cells were allowed to incubate 30 min at room temperature. The cells were lysed with lysis reagent and cAMP concentrations were determined by HTRF according to the manufacturer's instructions. A standard curve using known quantities of cAMP was evaluated in parallel to allow conversion of HTRF ratio to nM cAMP. The resulting curves were then evaluated using a Gaddum/Schild equation individually and with global fitting (Prizm v4.0, Graphpad). […]

hαCGRP: human αCGRP, calcitonin gene-related peptide, CGRP-receptor agonist used as vasodilator (ACDTATCVTHRLAGLLSRSGGVVKNNFVPTNVGSKAF; Calcitonin gene-related peptide 1; UniProt P06881 83-119, looked up)
percent increase in rat facial blood flow [1]: 100-120 % of baseline
percent increase in rat middle meningeal artery diameter [1]: 100-120 % of baseline
increase in laser Doppler facial blood flow [2]: dose-dependent increase
